This note sets out measurements from PubChem BioAssay AID731 (The Scripps Research Institute Molecular Screening Center, 2007).

Sequences of proteins named here, by UniProt entry; tags and fusion partners are left off. A change or cut given only in a name is not applied to a line headed by its entry.
UniProt P37231: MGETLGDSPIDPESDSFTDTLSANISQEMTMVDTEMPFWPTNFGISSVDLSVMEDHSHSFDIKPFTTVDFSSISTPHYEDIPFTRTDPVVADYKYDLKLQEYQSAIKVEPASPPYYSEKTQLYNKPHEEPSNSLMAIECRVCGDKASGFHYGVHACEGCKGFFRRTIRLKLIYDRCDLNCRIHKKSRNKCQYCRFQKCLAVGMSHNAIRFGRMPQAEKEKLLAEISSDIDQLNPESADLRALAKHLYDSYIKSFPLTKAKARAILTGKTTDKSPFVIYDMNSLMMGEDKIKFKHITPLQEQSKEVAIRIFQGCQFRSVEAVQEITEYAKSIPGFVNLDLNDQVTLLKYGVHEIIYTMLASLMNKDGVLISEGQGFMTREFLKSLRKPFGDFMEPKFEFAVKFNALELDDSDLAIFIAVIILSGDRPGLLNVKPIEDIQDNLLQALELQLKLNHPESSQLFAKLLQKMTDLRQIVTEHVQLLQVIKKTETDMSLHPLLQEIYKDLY

The list shows a part of the results, in another mix than the full data. Calls of active or inactive are those of the source. Rule as the data show it: active = activation above about 23%; inactive = the rest.

The test deals with Peroxisome proliferator-activated receptor gamma (Homo sapiens) (UniProt P37231). Put plainly: enhancers of SRC-3 binding to PPARgamma – biochemical, primary screen (AID 731).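 Also: 0% = DMSO and 100% = reference agonist.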 The conditions noted are these: biochemical PPARgamma/SRC-3 coactivator recruitment assay; at 8 µM; active compounds read high.
On to `CCN(N=Nc1nonc1N)c1nonc1N`, for which the activation was inactive: 0.48%.
Take `Cc1cc(SC(NC(=O)c2ccc(F)cc2)C(Cl)(Cl)Cl)ncn1` (stereo not given): the activation was inactive: 3.06%.
In the case of `CCOP(=O)(Nc1ccccc1)OCC`, the activation is inactive: 0.35%.
For `Oc1ccccc1CNc1ccccn1` the value was inactive: 8.23%; for `O=C(NC(Sc1ccncn1)C(Cl)(Cl)Cl)c1ccccc1` (stereo not given), inactive: 6.17%; for `Cc1c2non([O-])c-2c(C)[n+](=O)[n+]1[O-]`, inactive: 9.57%.
Consider `CC(C)CC(=O)NC(Sc1ccc(Cl)cc1)C(Cl)(Cl)Cl` (stereo not given), for which the activation is inactive: -3.73%.
Turning to `CN1CCCC(OC(=O)C(c2ccccc2)c2ccccc2)C1` (stereo not given), the activation is inactive: -0.16%.
Consider `Clc1ccc(Cl)c(NC2=NCC(CBr)S2)c1` (stereo not given), for which the activation is inactive: 0.17%.
As for `COc1ccccc1OP(=O)(Nc1ccc(C)cn1)Oc1ccccc1OC`, the activation was inactive: 18.5%.
`Cc1ccc(N/C(=N/P(=O)(N2CCOCC2)N2CCOCC2)N2CCOCC2)cc1`: the activation is inactive: 5.06%.
To `NC(=O)c1cc([N+](=O)[O-])cc([N+](=O)[O-])c1N` belongs inactive: -0.13%; to `CC1CCN(C(=O)Oc2c(Cl)cc(Cl)c3cccnc23)CC1`, inactive: 3.36%; to `CC(C)=N/N=C(\N)N[N+](=O)[O-]`, inactive: -1.92%.
As for `CN(C)C(=O)OCCc1n(C)cc[n+]1C`, the activation is inactive: -2.91%.
As to `CCN(/C(=N/P(=O)(N1CCOCC1)N1CCOCC1)N1CCOCC1)c1ccc(OC)cc1`, the activation was inactive: 0.48%.
For `Cc1ccc(NP(=O)(Oc2ccccc2)Oc2ccccc2)nc1` the value was inactive: -3.31%; for `CCc1nc2c(n1)c1c(non1O)c1c2no[n+]1[O-]`, inactive: -2.91%; for `O=[N+]([O-])c1cc([N+](=O)[O-])c(CCNc2ccccc2)c([N+](=O)[O-])c1`, inactive: 5.96%.
As to `O=[N+]([O-])c1cccc2n[nH]nc12`, the activation was inactive: 10.9%.
For `CC(=O)N1C2C3N(C(C)=O)C1C1N(C(C)=O)C(C(N1C(C)=O)N3C(C)=O)N2C(C)=O` the value was inactive: -2.46%; for `COc1ccc(C2=NCC(CBr)S2)cc1` (stereo not given), inactive: -1.89%; for `O=[N+]([O-])c1ncn(CCn2ncnc2[N+](=O)[O-])n1`, inactive: 1.44%.
Take `O=C(OC1CN2CCC1CC2)c1cccc(Cl)c1` (stereo not given): the activation was inactive: 7.7%.
On to `C(Cc1nn[nH]n1)Cc1nn[nH]n1`, for which the activation was inactive: -3.12%.
Turning to `CC(=O)NC(SC(=S)N(C)C)C(Cl)(Cl)Cl` (stereo not given), the activation is inactive: -2.53%.
To `O=P(Nc1ccccn1)(c1ccc(Br)cc1)c1ccc(Br)cc1` belongs inactive: 4.11%; to `c1nnnn1CCn1cnnn1`, inactive: -1.48%; to `CC(C)C(=O)NC(Sc1ccccc1)C(Cl)(Cl)Cl` (stereo not given), inactive: 3%.
Regarding `O=P(Nc1nccs1)(c1ccccc1)c1ccccc1`, the activation was inactive: -2.68%.
Take `CC(=O)Nc1ccc(Oc2c([N+](=O)[O-])cc([N+](=O)[O-])cc2[N+](=O)[O-])cc1`: the activation was inactive: 8.37%.
On to `CC(C)(C)C(=O)NC(Sc1ccccc1)C(Cl)(Cl)Cl` (stereo not given), for which the activation was inactive: -0.08%.
For `O=P1(Nc2nc3ccc(Cl)cc3s2)COc2ccccc2O1` (stereo not given) the value was inactive: 12.7%; for `CCOc1ccc(C2=NCC(CBr)S2)cc1` (stereo not given), inactive: 4.11%; for `O=c1c2cc([N+](=O)[O-])ccc2[nH]c2c([N+](=O)[O-])cc([N+](=O)[O-])cc12`, inactive: 2.56%.
Take `CCC(=O)N1C2C3N(C(=O)CC)C1C1N(C(=O)CC)C(C(N1C(=O)CC)N3C(=O)CC)N2C(=O)CC`: the activation was inactive: -6.11%.
As for `COC(=O)c1cc2c(s1)N=C(c1ccccc1)N(C)P2(=O)N1CCOCC1` (stereo not given), the activation is inactive: 2.32%.
With `CC(=O)NC(SC(=S)N(CC(C)C)CC(C)C)C(Cl)(Cl)Cl` (stereo not given), the activation was inactive: 3.66%.
Consider `Cc1ccc(OP(=O)(Nc2ccccn2)Oc2ccc(C)cc2)cc1`, for which the activation is inactive: -1.07%.
For the compound `c1ccc(-c2nn[nH]n2)c(-c2nn[nH]n2)c1`, the activation was inactive: 0.69%.
For the compound `CCOC(=O)NC(Sc1ccccc1)C(Cl)(Cl)Cl` (stereo not given), the activation is inactive: -10.4%.
To `CCNC(=S)/N=C(\N)N[N+](=O)[O-]` belongs inactive: 0.95%; to `O=C(NC1CCS(=O)(=O)C1)NP(=S)(Oc1ccccc1)Oc1ccccc1` (stereo not given), inactive: 5.08%.
Turning to `CCOP1(=S)c2c(C)nn(CCC#N)c2N=C(c2ccc(F)cc2)N1C` (stereo not given), the activation was inactive: -14.9%.
To `O=[N+]([O-])c1ccc2c(c1)nnn2O` belongs inactive: 13%; to `CCOP1(=S)c2c(C)nn(CCC#N)c2N=C(c2ccccc2F)N1C` (stereo not given), inactive: -4.31%; to `O=P(Nc1nccs1)(Oc1ccccc1)Oc1ccccc1`, inactive: 0.14%.
As for `O=P(Nc1nccs1)(c1ccccc1)c1nc2ccccc2s1` (stereo not given), the activation is inactive: -1.5%.
With `COc1cc(C2NCCC3(OCCO3)C2(C)C)cc(OC)c1OC` (stereo not given), the activation is inactive: 6.59%.
To `CCOP(=O)(Nc1cccc2ccccc12)OCC` belongs inactive: 2.35%.
Consider `Cc1ccc(NCCc2c([N+](=O)[O-])cc([N+](=O)[O-])cc2[N+](=O)[O-])cc1`, for which the activation was inactive: 3.92%.
As for `Cc1cccc(OCC(=O)OC2CN3CCC2CC3)c1` (stereo not given), the activation was inactive: -1.41%.
As for `COc1cc(C(=O)NCC2(N3CCOCC3)CCCCC2)cc(Cl)c1OC(C)C`, the activation is inactive: 4.84%.
`CC(C)/C=N\N=C(\N)N[N+](=O)[O-]`: the activation is inactive: -1.96%.
`CN(C(=O)Cc1ccc(Cl)c(Cl)c1)[C@@H]1CCCC[C@H]1N1CCCC1`: the activation was inactive: -5.9%.
As for `CC1(CBr)Cn2c(nc3ccccc3c2=O)S1` (stereo not given), the activation was inactive: 2.89%.
For `Clc1n[nH]nc1-c1nn[nH][15n]1`, the activation was inactive: -3.74%.
Turning to `O=P1(Nc2ccccn2)COc2ccccc2OC1`, the activation was inactive: 8.27%.
On to `Cc1ccc(OCC(=O)OC2CN3CCC2CC3)cc1` (stereo not given), for which the activation is inactive: 0.12%.
To `O=P1(Nc2ccc(Br)cn2)COc2ccccc2OC1` belongs inactive: -1.75%.
For `O=P1(Nc2ncccn2)COc2ccccc2OC1`, the activation was inactive: -2.97%.
Turning to `CN(C)C1(CNC(=O)c2ccc(S(C)(=O)=O)cc2)CCCCC1`, the activation is inactive: -0.31%.
With `Cc1nn(-c2ccccc2)c2c1P(=O)(N1CCOCC1)N(C)C(c1ccccc1)=N2` (stereo not given), the activation was inactive: 0.55%.
As to `CC1CCC(C(C)C)C(OP(=O)(Nc2ccccn2)c2ccccc2)C1` (stereo not given), the activation was inactive: -1.89%.
To `O=P(Nc1ccccn1)(c1cccc2ccccc12)c1cccc2ccccc12` belongs inactive: 0.51%; to `Cc1cc(SC(NC=O)C(Cl)(Cl)Cl)ncn1` (stereo not given), inactive: -0.18%.
As for `Cc1cc(SC(NC(=O)c2ccccc2)C(Cl)(Cl)Cl)nc(C(C)C)n1` (stereo not given), the activation was inactive: 1.63%.
For the compound `CCC(C)N(CC(C)C)C(=S)SC(NC(C)=O)C(Cl)(Cl)Cl` (stereo not given), the activation was inactive: -5.28%.
For the compound `O=C(COc1ccccc1)OC1CN2CCC1CC2` (stereo not given), the activation was inactive: 1.98%.
Consider `COP1(=S)c2c(C)nn(CCC#N)c2N=C(c2ccc(F)cc2)N1C` (stereo not given), for which the activation was inactive: -5.13%.
Regarding `COc1ccc(N/C(=N/P(=O)(N2CCOCC2)N2CCOCC2)N2CCOCC2)cc1`, the activation is inactive: -0.66%.
As to `COc1ccc2nc(NP(=O)(c3ccccc3)c3ccccc3)sc2c1`, the activation is inactive: 4.33%.
As for `Cc1c2c(nc3ccccc13)SC(C(Cl)Cl)C2` (stereo not given), the activation is inactive: -1.75%.
Consider `O=C(OC1CN2CCC1CC2)C12CC3CC(CC(C3)C1)C2` (stereo not given), for which the activation was inactive: 3.36%.
With `Cc1cc(=O)[nH]c(N[N+](=O)[O-])n1`, the activation is inactive: -0.43%.
Turning to `CC(C)NC(=O)NP(=O)(Oc1ccccc1)Oc1ccccc1`, the activation is inactive: 1.91%.
For `CCN(CC)C(=S)SC(NC=O)C(Cl)(Cl)Cl` (stereo not given) the value was inactive: -8.67%; for `O=[N+]([O-])c1cc([N+](=O)[O-])c(-c2ccn[nH]2)s1`, inactive: -0.76%; for `ClCCSc1nnc(-c2cccnc2)o1`, inactive: 4.01%.
For `Cc1ccc2nc3c(c(C)c2c1)CC(C(Cl)Cl)S3` (stereo not given) the value was inactive: -4.63%.
